What was measured:
[1] = biological target: human full-lengt MKNK1 (GST fusion, T344D) (Homo sapiens (Human), UniProt Q9BUB5, T344D); test: MKNK1 kinase assay (TR-FRET, 10 μM ATP); format: biochemical; conditions: 15 min preincubation
Description: MKNK1-inhibitory activity of compounds of the present invention was quantified employing the MKNK1 TR-FRET assay as described in the following paragraphs.
(§1) A recombinant fusion protein of Glutathione-S-Transferase (GST, N-terminally) and human full-lengt MKNK1 (amino acids 1-424 and T344D of accession number BAA 19885.1), expressed in insect cells using baculovirus expression system and purified via glutathione sepharose affinity chromatography, was purchased from Carna Biosciences (product no 02-145) and used as enzyme. As substrate for the kinase reaction the biotinylated peptide biotin-Ahx-[…] (C-terminus in amide form) was used which can be purchased e.g. form the company Biosyntan (Berlin-Buch, Germany).
(§2) For the assay 50 nL of a 100 fold concentrated solution of the test compound in DMSO was pipetted into a black low volume 384 well microtiter plate (Greiner Bio-One, Frickenhausen, Germany), 2 μL of a solution of MKNK1 in aqueous assay buffer [50 mM HEPES pH 7.5, 5 mM magnesium chloride, 1.0 mM dithiothreitol, 0.005% (v/v) Nonidet-P40 (Sigma)] was added and the mixture was incubated for 15 min at 22° C. to allow pre-binding of the test compounds to the enzyme before the start of the kinase reaction. Then the kinase reaction was started by the addition of 3 μL of a solution of adenosine-tri-phosphate (ATP, 16.7 μM=>final conc. in the 5 μL assay volume is 10 μM) and substrate (0.1 μM=>final conc. in the 5 μL assay volume is 0.06 μM) in assay buffer and the resulting mixture was incubated for a reaction time of 45 min at 22° C. The concentration of MKNK1 was adjusted depending of the activity of the enzyme lot and was chosen appropriate to have the assay in the linear range, typical concentrations were in the range of 0.05 μg/ml. The reaction was stopped by the addition of 5 μL of a solution of TR-FRET detection reagents (5 nM streptavidine-XL665 [Cisbio Bioassays, Codolet, France] and 1 nM anti-ribosomal protein S6 (pSer236)-antibody from Invitrogen [#44921G] and 1 nM LANCE EU-W1024 labeled ProteinG [Perkin-Elmer, product no. AD0071]) in an aqueous EDTA-solution (100 mM EDTA, 0.1% (w/v) bovine serum albumin in 50 mM HEPES pH 7.5).
(§3) The resulting mixture was incubated for 1 h at 22° C. to allow the formation of complex between the phosphorylated biotinylated peptide and the detection reagents. Subsequently the amount of phosphorylated substrate was evaluated by measurement of the resonance energy transfer from the Eu-chelate to the streptavidine-XL. Therefore, the fluorescence emissions at 620 nm and 665 nm after excitation at 350 nm were measured in a TR-FRET reader, e.g. a Rubystar (BMG Labtechnologies, Offenburg, Germany) or a Viewlux (Perkin-Elmer). The ratio of the emissions at 665 nm and at 622 nm was taken as the measure for the amount of phosphorylated substrate.

Sequences of proteins named here, by UniProt entry; tags and fusion partners are left off. A line that says so, or that is headed by a name, gives the form on record, which may keep a tag or linker.
UniProt Q9BUB5, other isoform, or with tags, fused parts or gaps T344D: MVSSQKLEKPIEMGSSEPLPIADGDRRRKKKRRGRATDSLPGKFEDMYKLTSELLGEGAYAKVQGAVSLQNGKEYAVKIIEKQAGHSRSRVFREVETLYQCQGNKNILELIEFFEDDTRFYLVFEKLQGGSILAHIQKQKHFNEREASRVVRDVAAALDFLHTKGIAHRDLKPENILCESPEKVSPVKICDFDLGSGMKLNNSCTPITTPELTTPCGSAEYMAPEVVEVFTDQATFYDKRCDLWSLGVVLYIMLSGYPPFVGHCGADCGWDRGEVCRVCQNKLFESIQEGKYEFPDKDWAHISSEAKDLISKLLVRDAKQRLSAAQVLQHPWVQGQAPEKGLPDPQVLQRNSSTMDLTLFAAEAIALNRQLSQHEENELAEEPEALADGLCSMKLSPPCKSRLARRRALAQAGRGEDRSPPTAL

[2] = biological target: human full-length MKNK1 (GST fusion, T344D) (Homo sapiens (Human), UniProt Q9BUB5, T344D); test: MKNK1 kinase high ATP assay (TR-FRET, 2 mM ATP); format: biochemical; conditions: 15 min preincubation
Method: MKNK1 Kinase High ATP Assay
MKNK1-inhibitory activity at high ATP of compounds of the present invention after their preincubation with MKNK1 was quantified employing the TR-FRET-based MKNK1 high ATP assay as described in the following paragraphs.
as §1, with “human full-length” for “human full-lengt”, “was used,” for “was used”, “e.g. from” for “e.g. form”
as §2, with “3.3 mM=>final” for “16.7 μM=>final”, “2 mM)” for “10 μM)”, “30” for “45”, “0.003 μg/mL.” for “0.05 μg/ml.”
as §3

O=C(Nc1ccc2ncc(-c3cc4ccccc4o3)n2n1)C(O)C1CCOCC1 (stereo not shown) [Example 5, N-[3-(1-Benzofuran-2-yl)imidazo[1,2-b]pyridazin-6-yl]-2-hydroxy-2-(tetrahydro-2H-pyran-4-yl)acetamide]
IC50 [1]: 4 nM | IC50 [2]: 8 nM

O=C(Cc1cccnc1)Nc1ccc2ncc(-c3cc4ccccc4o3)n2n1 [Example 7, N-[3-(1-Benzofuran-2-yl)imidazo[1,2-b]pyridazin-6-yl]-2-(pyridin-3-yl)acetamide]
IC50 [1]: 5 nM | IC50 [2]: 11 nM

O=C(Nc1ccc2ncc(-c3cc4ccccc4o3)n2n1)C(O)C1CC1 (stereo not shown) [Example 12, N-[3-(1-Benzofuran-2-yl)imidazo[1,2-b]pyridazin-6-yl]-2-cyclopropyl-2-hydroxyacetamide]
IC50 [1]: 5 nM | IC50 [2]: 11 nM

N#Cc1ccc(CC(=O)Nc2ccc3ncc(-c4cc5ccccc5o4)n3n2)cc1 [Example 18, N-[3-(1-Benzofuran-2-yl)imidazo[1,2-b]pyridazin-6-yl]-2-(4-cyanophenyl)-acetamide]
IC50 [1]: 10 nM | IC50 [2]: 10 nM

Cn1cc(CCC(=O)Nc2ccc3ncc(-c4cc5ccccc5o4)n3n2)cn1 [Example 20, N-[3-(1-benzofuran-2-yl)imidazo[1,2-b]pyridazin-6-yl]-3-(1-methyl-1H-pyrazol-4-yl)propanamide]
IC50 [1]: 6 nM | IC50 [2]: 15 nM

O=C(Cc1ccccc1C(F)(F)F)Nc1ccc2ncc(-c3cc4ccccc4o3)n2n1 [Example 25, N-[3-(1-benzofuran-2-yl)imidazo[1,2-b]pyridazin-6-yl]-2-[2-(trifluoromethyl)phenyl]acetamide]
IC50 [1]: 31 nM | IC50 [2]: 35 nM

N#CCC(=O)Nc1ccc2ncc(-c3cc4ccccc4o3)n2n1 [Example 26, N-[3-(1-benzofuran-2-yl)imidazo[1,2-b]pyridazin-6-yl]-2-cyanoacetamide]
IC50 [1]: 14 nM | IC50 [2]: 10 nM

O=C(Nc1ccc2ncc(-c3cc4ccccc4o3)n2n1)C1CCOCC1 [Example 27, N-[3-(1-benzofuran-2-yl)imidazo[1,2-b]pyridazin-6-yl]tetrahydro-2H-pyran-4-carboxamide]
IC50 [1]: 25 nM | IC50 [2]: 35 nM

CN(C)CC(=O)Nc1ccc2ncc(-c3cc4ccccc4o3)n2n1 [Example 28, N-[3-(1-benzofuran-2-yl)imidazo[1,2-b]pyridazin-6-yl]-N^2,N^2-dimethylglycinamide]
IC50 [1]: 17 nM | IC50 [2]: 28 nM

O=C(CCc1ccc(F)cc1)Nc1ccc2ncc(-c3cc4ccccc4o3)n2n1 [Example 29, N-[3-(1-benzofuran-2-yl)imidazo[1,2-b]pyridazin-6-yl]-3-(4-fluorophenyl)propanamide]
IC50 [1]: 44 nM | IC50 [2]: 67 nM

O=C(CN1CCCC1)Nc1ccc2ncc(-c3cc4ccccc4o3)n2n1 [Example 30, N-[3-(1-benzofuran-2-yl)imidazo[1,2-b]pyridazin-6-yl]-2-(pyrrolidin-1-yl)acetamide]
IC50 [1]: 30 nM | IC50 [2]: 28 nM

Source: patent US9745304B2, “Amidoimidazopyridazines as MKNK-1 kinase inhibitors” (BAYER PHARMA AKTIENGESELLSCHAFT, priority 2013, dated 2017)
